# Measured values published in patent US8759386B2, “Pyrazole compounds as CRTH2 antagonists” (Boehringer Ingelheim International GmbH, priority 2011, dated 2014).
# The chains behind the UniProt entries cited, without tags or fusion partners.
# UniProt Q9Y5Y4, whole entry: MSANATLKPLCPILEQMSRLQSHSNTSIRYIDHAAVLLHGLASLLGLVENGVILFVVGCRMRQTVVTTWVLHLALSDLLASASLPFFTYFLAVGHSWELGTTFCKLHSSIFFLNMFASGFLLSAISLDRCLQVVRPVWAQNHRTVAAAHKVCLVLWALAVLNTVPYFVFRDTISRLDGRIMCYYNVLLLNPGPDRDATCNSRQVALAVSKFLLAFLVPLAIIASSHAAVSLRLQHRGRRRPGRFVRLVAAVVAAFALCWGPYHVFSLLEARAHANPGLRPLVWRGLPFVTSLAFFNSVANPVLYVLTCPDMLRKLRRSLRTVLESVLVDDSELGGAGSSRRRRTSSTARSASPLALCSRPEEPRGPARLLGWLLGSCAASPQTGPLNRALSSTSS
# Biological target: human CRTH2 receptor (Homo sapiens (Human), UniProt Q9Y5Y4)
# Assay: CRTH2 receptor radioligand binding assay (SPA, [3H]-PGD2, CHO-K1-hCRTH2 cell membranes)
# Conditions: Table 1, compounds of formula Ia″; displacement of [3H]-PGD2 from CHO-K1-hCRTH2 membranes
structure (smiles),measurement,value
Cc1nn(Cc2ccc(NC(=O)c3cc4ccccc4o3)cc2)c(C)c1CC(=O)O,Ki,0.8 nM
CCc1c(C(=O)Nc2ccc(Cn3nc(C)c(CC(=O)O)c3C)c(F)c2)oc2c(F)cccc12,Ki,0.6 nM
